Reference: publication PMC12775434, “Ultra-large virtual screening unveils potent agonists of the neuromodulatory orphan receptor GPR139” (Nature Communications, 2025)

Amino acid sequences for entries named in this document (tags omitted).
UniProt Q6DWJ6, whole entry: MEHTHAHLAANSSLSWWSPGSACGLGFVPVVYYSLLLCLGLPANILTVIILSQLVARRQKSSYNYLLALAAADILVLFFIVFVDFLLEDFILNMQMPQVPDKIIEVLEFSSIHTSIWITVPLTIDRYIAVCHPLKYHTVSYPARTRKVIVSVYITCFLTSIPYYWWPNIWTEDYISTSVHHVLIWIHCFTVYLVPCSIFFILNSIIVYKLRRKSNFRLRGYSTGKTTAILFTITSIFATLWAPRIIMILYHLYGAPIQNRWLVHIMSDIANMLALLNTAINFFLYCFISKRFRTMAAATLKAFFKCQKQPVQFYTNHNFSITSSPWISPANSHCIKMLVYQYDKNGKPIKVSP

Molecular target: human GPR139 (Homo sapiens, UniProt Q6DWJ6)
Experiment: Ca2+ mobilization assay, agonist mode, stable GPR139-CHOk1 cell line
Assay type: cell-based

EC50 (read-out: EC50, Ca2+ mobilization, GPR139-CHOk1): 540 nM | Emax, Ca2+ mobilization (relative to Lundbeck Cmp 1a): 122%
Compound: C[C@H](NC(=O)Cn1cncc(-c2ccccc2)c1=O)c1ccccc1
